Measured values reported in patent US20220331267A1, “METHODS AND COMPOSITIONS FOR TREATMENT OF DEMYELINATING DISORDERS” (Rush University Medical Center, priority 2019, published 2022).

Legend:
PPARβ LBD = biological target: T1, PPARβ LBD (Homo sapiens, UniProt Q03181); assay: TR-FRET (Lanthascreen PPAR-β coactivator assay)
T1 sequence (Q03181 211-439 limits assumed): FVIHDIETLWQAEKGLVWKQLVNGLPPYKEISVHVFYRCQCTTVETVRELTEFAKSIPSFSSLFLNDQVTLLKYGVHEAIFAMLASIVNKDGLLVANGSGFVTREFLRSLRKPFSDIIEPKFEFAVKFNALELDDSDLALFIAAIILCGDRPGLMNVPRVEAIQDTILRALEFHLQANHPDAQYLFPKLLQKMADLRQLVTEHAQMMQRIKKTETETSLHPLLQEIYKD

H412Lpparβ = H412Lpparβ (Mus musculus, UniProt P35396, H412L)
PPARβ [1] = biological target: T2, PPARβ (Mus musculus, UniProt P35396); assay: biochemical
T2 sequence (P35396 1-440): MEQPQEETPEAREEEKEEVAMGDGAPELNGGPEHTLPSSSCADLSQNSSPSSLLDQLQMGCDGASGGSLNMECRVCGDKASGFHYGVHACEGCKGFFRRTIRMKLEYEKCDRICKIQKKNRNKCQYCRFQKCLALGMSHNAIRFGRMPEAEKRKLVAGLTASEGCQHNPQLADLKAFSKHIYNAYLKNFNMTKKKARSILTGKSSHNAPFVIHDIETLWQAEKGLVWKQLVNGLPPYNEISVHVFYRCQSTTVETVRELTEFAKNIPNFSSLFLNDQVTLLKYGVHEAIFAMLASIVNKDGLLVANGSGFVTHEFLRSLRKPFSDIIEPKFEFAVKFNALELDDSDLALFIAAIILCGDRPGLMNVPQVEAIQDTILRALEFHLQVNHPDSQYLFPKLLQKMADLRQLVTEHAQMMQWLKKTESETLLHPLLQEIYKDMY

PPARβ [2] = biological target: T2, PPARβ; assay: PPRE-driven luciferase assay in cultured OPCs; type: cell-based; design: OPCs were transfected with PPRE-luciferase for 48 hrs and then treated with these compounds; endogenous in cells; host or cells: mouse primary OPCs from P1 cerebellum; conditions: different concentrations
PLP, MOG, MBP and CNPase = assay: Real-time and semi-quantitative RT-PCR of myelin genes in OPCs; type: cell-based, mouse; conditions: cultured OPCs
Procedure: FIG. 1A-1T. The role of DBB, DBP and MePA in the differentiation of OPC into oligodendrocytes and myelination. […] Briefly, mouse primary OPCs were treated with different concentrations of molecules for 1 hr, lysed and measured for DNA probe binding activity of PPARβ. […] Benzene was included as negative control. **p<0.01 vs. control for PLP, MOG, MBP, and CNPase. Results are mean±SD of three independent experiments. (FIG. 1G) Immunoblot followed by (FIG. 1H) relative densitometric analyses of PLP and MBP in mouse primary OPCs treated with increasing concentrations of DBB for 18 hrs. Band intensity was measured with image J software and then normalized with respective actin band. *p<0.05 (=0.041) vs. PLP control and *p<0.05 (=0.026) vs. MBP control. […] (N) Mean fluorescence intensity (MFI) of MBP was measured from total 15 cells per group with three cells from 5 different images per group. […] (FIG. 1Q) Mean fluorescence intensity (MFI) of MBP was measured from total 15 cells per group with three cells from 5 different images per group. […] (FIG. 1T) Numbers of MBP-ir cells of different treatment groups were counted per sq.mm of nanofiber matrix and presented as a histogram. […]
DBB, DBP and MePA stimulate the differentiation of OPC to oligodendrocytes and promote myelination. […] After that, cells were lysed and assessed for PPRE-luciferase activity. […]

| SMILES | EC50 (PPARβ LBD) | ΔTm (shift of melting curve) (H412Lpparβ) | EC50 (PPARβ [1]) | ΔTm at 1 µM (PPARβ [1]; read-out: ΔTm) | PPRE-luciferase activity (PPARβ [2]) | expression of myelin genes (PLP, MOG, MBP, CNPase mRNA) (PLP, MOG, MBP and CNPase) | ΔTm at 0.1 µM (PPARβ [1]; read-out: ΔTm) |
| --- | --- | --- | --- | --- | --- | --- | --- |
| CC(C)(C)c1cccc(C(C)(C)C)c1 [DBB, 1,3-Di-tertbutyl benzene] | 525 nM | 5.95 °C | ~500 nM | 2.14 °C |  |  |  |
| CCCCCCCCCCCCCCCC(=O)OC [MePA, Methyl palmitate] |  | 4.03 °C | ~50 nM |  | increased the PPRE-luciferase activity in a dose-dependent manner | upregulated the expression of myelin genes | 5.28 °C |
